The target in this assay is GFP-RILP LIR3-mutant (triple LIR mutant) (human) (UniProt Q96NA2). In words: co-IP.

For one substance, percent reduction of LC3 binding relative to wt RILP results are on record in publication PMC9575183.

“LC3 (co-immunoprecipitated with GFP-RILP) (from UniProt Q62625 1-120) (natural protein)” had a percent reduction of LC3 binding relative to wt RILP of 50%.
